Results reported in US6391871B1 (priority 1996, dated 2002).

Test system: pyramidal neurons in layers III and IV of the posterior cingulate and retrosplenial (PC/RS) cortices
Experiment: In vivo assay of toxic side effects of NMDA antagonists (vacuole formation in PC/RS cortex)

**Q.** How did the “neurotoxic reaction in the PC/RS cortex at the highest dose tested” value (100 mg/kg/ip, rats) turn out when Ibogaine was run?
**A.** did not cause a neurotoxic reaction

**Q.** What about the “neurotoxic (vacuole) reaction in PC/RS cortex, drug by itself” value (adult female rats, ip, sacrificed four hours after treatment) of the same substance?
**A.** did not cause this neurotoxic reaction; also recorded: neither SKF (+)10,047 nor ibogaine by itself caused vacuoles

**Q.** What about the “vacuole reaction in PC/RS neurons, drug combined with sigma agonist SKF (+)10,047” value (co-administered with SKF (+)10,047, rats) of the same substance?
**A.** caused a vacuole reaction in PC/RS neurons

**Q.** What about the “nearly a lethal dose (highest dose tested)” value (rats) of the same substance?
**A.** 100 mg/kg/ip

Entries after “also recorded” stand apart in the source; their conditions may differ.
